Measurements taken from paper PMC10897015, “Investigation of anti-nociceptive, anti-inflammatory potential and ADMET studies of pure compounds isolated from Isodon rugosus Wall. ex Benth” (Frontiers in Pharmacology, 2024).

Key:
[1] = test system: Swiss albino mice; assay: Formalin test with opioid receptor involvement; conditions: for formalin induced pain, licking time, individual values: single animals; for Total time spent in licking 15–30 min: second phase
[2] = test system: Swiss albino mice; assay: Hot plate test with opioid receptor involvement; conditions: mouse, in vivo

## CN1CC[C@]23c4c5ccc(O)c4O[C@H]2[C@@H](O)C=C[C@H]3[C@H]1C5 [Mor, morphine, reference compound]
[1]; 0-5 minutes
  formalin induced pain, licking time, individual values: 9.8 and 7.02 and 8.68
[1]; 15-30 minutes
  formalin induced pain, licking time, individual values: 6.8 and 5.78 and 7.92
[1]; first phase, compounds 50 mg/kg, Mor 5 mg/kg, Nal 1 mg/kg
  Total time spent in licking 0–5 min: 8.5 s
[1]; compounds 50 mg/kg, Mor 5 mg/kg, Nal 1 mg/kg
  Total time spent in licking 15–30 min: 06.83 ± 0.60 s
[1]; compounds 50 mg/kg, Mor 5 mg/kg, Nal 1 mg/kg, listed as morphine
  Total time spent in licking 15–30 min: 6.833 s
[2]
  Reaction time on hot plate, individual values: 10.21 and 9.8 and 8.98 and 8.52 and 5.49 and 11.15 and 10.46 and 9.71 and 9.7 and 7.34 and 12.12 and 11.13 and 10.51 and 10.98 and 9.24

Several values for one entry are separate records, joined by “and”; a condition that tells them apart may be missing. Equal values may be shown once.
